From ChEMBL document CHEMBL5725377, “BET bromodomain inhibitors and therapeutic methods using the same” (2017)

Protein sequences, listed by entry. Tags and fused reporters are not part of them.
UniProt P25440, whole entry: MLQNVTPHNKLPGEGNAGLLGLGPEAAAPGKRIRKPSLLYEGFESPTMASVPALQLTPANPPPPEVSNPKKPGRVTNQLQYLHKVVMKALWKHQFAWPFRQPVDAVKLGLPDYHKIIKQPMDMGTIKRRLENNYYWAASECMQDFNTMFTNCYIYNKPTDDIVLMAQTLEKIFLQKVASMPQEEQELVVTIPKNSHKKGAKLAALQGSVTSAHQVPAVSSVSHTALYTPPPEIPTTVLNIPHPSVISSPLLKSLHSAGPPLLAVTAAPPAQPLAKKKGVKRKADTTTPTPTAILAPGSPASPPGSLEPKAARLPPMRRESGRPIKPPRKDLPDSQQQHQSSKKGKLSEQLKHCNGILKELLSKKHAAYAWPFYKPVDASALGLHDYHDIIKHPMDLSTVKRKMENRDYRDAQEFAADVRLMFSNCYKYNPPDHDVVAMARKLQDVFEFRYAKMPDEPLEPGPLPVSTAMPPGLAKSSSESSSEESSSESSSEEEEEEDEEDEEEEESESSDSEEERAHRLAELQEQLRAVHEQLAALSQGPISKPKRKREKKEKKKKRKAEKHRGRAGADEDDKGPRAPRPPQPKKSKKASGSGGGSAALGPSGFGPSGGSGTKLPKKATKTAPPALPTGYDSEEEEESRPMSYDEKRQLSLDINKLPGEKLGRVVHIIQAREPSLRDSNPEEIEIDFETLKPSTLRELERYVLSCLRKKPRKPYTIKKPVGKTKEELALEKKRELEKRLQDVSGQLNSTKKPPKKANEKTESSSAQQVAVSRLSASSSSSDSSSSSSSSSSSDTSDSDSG
UniProt Q15059, whole entry: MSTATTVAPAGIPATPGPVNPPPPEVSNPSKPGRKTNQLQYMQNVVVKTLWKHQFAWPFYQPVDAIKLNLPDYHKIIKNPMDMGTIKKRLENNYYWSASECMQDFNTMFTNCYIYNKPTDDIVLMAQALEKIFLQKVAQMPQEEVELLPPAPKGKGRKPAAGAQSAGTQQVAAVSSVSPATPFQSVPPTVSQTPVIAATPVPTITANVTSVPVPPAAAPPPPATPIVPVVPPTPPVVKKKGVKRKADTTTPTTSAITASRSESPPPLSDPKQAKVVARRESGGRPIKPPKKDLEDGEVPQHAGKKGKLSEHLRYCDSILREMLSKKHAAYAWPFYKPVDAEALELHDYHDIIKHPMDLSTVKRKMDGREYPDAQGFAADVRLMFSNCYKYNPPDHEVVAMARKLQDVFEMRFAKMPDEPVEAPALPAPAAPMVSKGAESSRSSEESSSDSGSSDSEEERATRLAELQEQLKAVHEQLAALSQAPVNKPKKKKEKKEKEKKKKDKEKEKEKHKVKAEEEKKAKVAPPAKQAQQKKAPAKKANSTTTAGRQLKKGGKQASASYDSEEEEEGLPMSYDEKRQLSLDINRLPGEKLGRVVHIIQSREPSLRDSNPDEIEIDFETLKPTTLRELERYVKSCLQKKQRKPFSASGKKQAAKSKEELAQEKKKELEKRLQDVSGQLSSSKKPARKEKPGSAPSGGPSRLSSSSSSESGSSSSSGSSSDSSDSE

Key:
[1] = molecular target: Bromodomain-containing protein 2 (Homo sapiens, UniProt P25440); assay: (§1) FP Competitive Binding Assay (No.350): Fluorescence Polarization (FP) competitive binding studies (see above) were carried out using the FAM labeled fluorescent probe Cpd. No. 350 to determine binding affinities of representative compounds to both BD1 and BD2 of BRD2, BRD3, and BRD4 proteins. Equilibrium dissociation constants (Id) values of Cpd. […] Final Cpd. […] Kd values of Cpd.
[2] = molecular target: Bromodomain-containing protein 3 (Homo sapiens, UniProt Q15059); assay: as §1
[3] = molecular target: Bromodomain-containing protein 4 (Homo sapiens, UniProt O60885); assay: as §1

Molecule `COc1cc2c(cc1-c1c(C)noc1C)[nH]c1nc(C)nc(-c3cc(C(=O)NC4CCN(C5COC5)CC4)cc(C(C)(C)C)c3)c12` has a Ki [1] of 3.2 nM, a Ki [2] of 2.3 nM and a Ki [3] of 10 nM.
